System: rat striatal slices
Test: In vitro [3H]-dopamine release from rat striatal slices
Assay type: cell-based

**Q.** c1cnc2[nH]cc(C[C@@H]3CCCN3)c2c1 (stereo in doubt) [Compound 97, (S)-3-Pyrrolidin-2-ylmethyl-1H-pyrrolo[2,3-b]pyridine] was tested. Which “Functional activity release [^3H]-Dopamine % of control” value did it give?
**A.** 122 % of control

— patent US8252930B2, “Azaindole derivatives with a combination of partial nicotinic acetyl-choline receptor agonism and dopamine reuptake inhibition” (Solvay Pharmaceuticals B.V., priority 2006, dated 2012)
